The values below come from patent publication US20230381112A1, “Compositions and Methods of Manufacturing Amphiphilic Block Copolymers that Form Nanoparticles in Situ” (Vaccuitech North America, Inc., priority 2020, published 2023).

The data set in a line: DLS temperature sweep in PBS: hydrodynamic diameter (DH), transition temperature (Ttr), solubility/aggregation.

With “CN-p[(NIPMAM)f1-co-(BnMAM)f2]-b-p(HPMA)a-DTB [Compound 200]”, the “particle diameter in solution above the transition temperature” value is listed as approximately 53 nm.
